# Apparent affinities of Ab-14 variants for a coronavirus HR2 peptide

From the AlphaSeq antibody data of Engelhart et al. 2022 (doi:10.1038/s41597-022-01779-4), copy in the FLAb collection.

Binding partner: SARS-CoV-2 spike HR2 peptide, sequence PDVDLGDISGINAS.

The variants keep the light chain, the linker and the frameworks of Ab-14 (scFv order VH, a 15-residue (Gly4Ser)3 linker, VL).
VH: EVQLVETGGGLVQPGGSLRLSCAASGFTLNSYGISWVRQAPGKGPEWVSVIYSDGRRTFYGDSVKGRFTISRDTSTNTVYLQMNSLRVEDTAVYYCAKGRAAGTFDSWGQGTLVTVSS
VL: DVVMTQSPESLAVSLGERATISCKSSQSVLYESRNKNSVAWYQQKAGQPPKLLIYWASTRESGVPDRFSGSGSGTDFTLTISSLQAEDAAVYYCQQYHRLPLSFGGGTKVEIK

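Variants in AAYL49 differ from the parent at up to three CDR positions; double and triple changes were sampled at random. Affinity was read by AlphaSeq, a pooled yeast mating assay with surface-displayed partners. Binding brings cells together so that they mate, and sequencing counts the barcode pairs among the diploids. Scores were corrected for input abundance and mapped to Kd with protein pairs of known affinity run in the same pool. There are three technical replicates.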

Each variant is given by its three heavy chain CDRs, as the data file delimits them; those of the parent are GFTLNSYGIS, VIYSDGRRTFYGDSVK, GRAAGTFDS.
Scale: log10 of Kd in nM, estimated from mating counts; low values are strong binders.
"n.d." marks a missing value. The strain was present, yet no cells mated with the target were sequenced in that replicate, which points to weak or no binding.
Nonspecific signal, from three strains lacking the peptide, appeared in 15% of pairings of library AAYL49, centred on 4.06 (5% of these signals below 2.83); values are not corrected for it. Also given: how often the same scFv was detected with the empty control strains, with their mean in brackets.
Parent in this assay: reference entry 0.65, copy in this library 4.11 (one replicate of three).

CDR-H1 | CDR-H2 | CDR-H3 | log10 Kd (nM) by replicate | control signals
GFTLNSYGIS | VIYSDGRRAFYGDSKK | GRAAGTFIS | n.d. / n.d. / n.d. | 1/9 (3.16)
GFTLNSYGIS | VIYNDGRRTFYGDHVK | GRTAGTFDS | 1.61 / 2.81 / 2.13 | 1/9 (2.88)
GFTLNSYGIS | VIYSDDRRAFYGDSVK | GRAAGTLDS | n.d. / n.d. / n.d. | 0/9
GFTLNSDGIS | HIYSDGRRTFYGDSVV | GRAAGTFDS | 6.26 / 4.22 / 5.01 | 8/9 (4.58)
GFTNNSYGIM | VIYSDGRRTFYGDSFK | GRAAGTFDS | n.d. / n.d. / n.d. | 1/9 (2.47)
GFTLNSYGIS | VIYSDGRRTFEGDSVP | QRAAGTFDS | n.d. / n.d. / n.d. | 3/9 (4.36)
GFTPNVYGIS | VIYSDGRRTFYMDSVK | GRAAGTFDS | n.d. / n.d. / n.d. | 0/9
GFTLNSYSIS | VIYWDERRTFYGDSVK | GRAAGTFDS | n.d. / n.d. / n.d. | 0/9
GFTLNSYGIS | VIYSDGRWTFYGDSVK | WRAAGTFDS | n.d. / n.d. / n.d. | 0/9
GFTLNSYGIS | VIYSDGYNDFYGDSVK | GRAAGTFDS | n.d. / n.d. / n.d. | 1/9 (4.13)
GFTLKSYGIS | VIYSDGRRTFYGDSEK | GRTAGTFDS | 4.35 / 4.56 / n.d. | 1/9 (3.76)
GFILNSYGIS | VICSDGRRTFYGDSVK | GRAAGTFDS | 3.49 / n.d. / 4.43 | 3/9 (4.69)
GFTLNSYGIS | VLYSDGRRTFYGDDVK | WRAAGTFDS | 4.19 / 3.61 / 4.05 | 4/9 (4.35)
GFTYNSYPIS | VIYSDGRRTFYYDSVK | GRAAGTFDS | 3.98 / n.d. / n.d. | 4/9 (4.73)
GFSLNHYGIS | VIYSDGRRTFYRDSVK | GRAAGTFDS | n.d. / 3.11 / n.d. | 0/9
GFTLNSLGIS | VQYSDGRRTFYGDSVK | GCAAGTFDS | n.d. / n.d. / n.d. | 0/9
GFTLNSYGIS | VQYSWGRRTFYGDSVK | PRAAGTFDS | n.d. / n.d. / n.d. | 0/9
GFTLNSYGIS | VINEDGRRTFYGDSVK | GRAAGPFDS | n.d. / n.d. / n.d. | 1/9 (3.32)
SFTLNSYGIS | VSYSDGRRTFYGDSVK | IRAAGTFDS | n.d. / n.d. / n.d. | 0/9
GFTLNSYGIS | VIYSDGRRTFYHDSVK | GRACSTFDS | n.d. / n.d. / n.d. | 3/9 (3.94)
GFTLQSYGIS | VIYSDGRRTFYGDSPK | RRAAGTFDS | n.d. / 4.73 / n.d. | 1/9 (3.65)
GFTLNSYIIS | VIYSDGERTFYGDSVP | GRAAGTFDS | n.d. / n.d. / n.d. | 0/9
GKTLNSYGIS | VIYSDNRDTFYGDSVK | GRAAGTFDS | n.d. / n.d. / n.d. | 2/9 (4.46)
GFTLNSYGIS | VIMSDGRRTFYGDSVK | GRYAGTIDS | 4.39 / n.d. / 5.71 | 2/9 (4.21)
GFTLNSYGIS | VIYSDQRRTFYGDSVK | GRRAGTMDS | n.d. / n.d. / n.d. | 0/9
GFTLNSDGIS | VIYSDGRRTFYFDSVK | GRATGTFDS | n.d. / n.d. / n.d. | 0/9
GFTLNSYGFS | VIRSDGRRTFYGDSVK | GRAAGTDDS | 4.43 / 5.04 / 4.07 | 1/9 (4.06)
GFTLNSYGIS | VIISDGRRTFYGDSVK | GRAEGTFDT | 5.59 / n.d. / n.d. | 2/9 (4.18)
GFTLNSYGIF | VIYSDGMRTFYGDSVK | GRAAGTNDS | n.d. / n.d. / 4.14 | 3/9 (3.69)
GFTLNSYGIS | VIYIDGRRTFYGDKVK | GRAAGTFDS | n.d. / n.d. / n.d. | 0/9
GFTLNSYGLS | VIYSDGRRTFYGESVK | GRAAQTFDS | n.d. / n.d. / n.d. | 1/9 (3.21)
MFTLNSYGIS | VIYSDGRRTFYGDSVK | GRAAGTFDS | 3.63 / n.d. / 3.92 | 2/9 (3.86)